From patent US7192932B1, “Use of immunomodulating agents” (Lauras AS, priority 1997, dated 2007)

System: peripheral blood CD3+ T cells
Assay: TCR/CD3 (anti-CD3) stimulated T cell proliferation, [3H]-thymidine incorporation
Type: cell-based, human
Conditions: CVI patients and controls
Description: Human peripheral blood CD3+ T cells were purified by negative selection from 50 ml of heparin-treated blood from normal healthy donors (Ullevaal University Hospital Blood Center, Oslo. Norway) or patients. Briefly, peripheral blood mononuclear cells were isolated by density gradient (Lymphoprep, NycoMed, Oslo, Norway) centrifugation followed by negative selection using monodisperse magnetic beads directly coated with antibodies to CD14 and CD19 and rat anti-mouse IgG beads coated with antibodies to CD56 and a magnet. […]
Proliferation assays were performed by incubation of 0.75×10^6 CM+ T cells/ml in a 100 μl volume in that-bottom 96-well microtiter plates. […] Proliferation was analyzed by incubating, cells for 72 hours during which [^3H]thymidine was included for the last 16 hours. Cells were washed and harvested onto filters using a Scatron harvester (Suffolk, UK) and subsequently analyzed by β-scintillation counting. cAMP analogs, when used, were added 30 min prior to activation by addition of […] antibodies. 8-CPT-cAMP was from Sigorna (St. Louis, Mo.) and Sp- and Rp-8-Br-cAMPS were from BioLog Life Science Company (Bremen, Germany) and were all dissolved to concentrations of 4 to 10 mM in PBS and concentrations calculated using the extinction coefficients given by the manufacturer.

Substance: IL-2: exogenously added IL-2 (2 Units/ng)
- Effect of exogenously added IL-2 on anti-CD3 stimulated proliferation: marked increase
- Effect of exogenously added IL-2 on anti-CD3 stimulated proliferation (IL-2 ˜0.15 ng/mL): no significant effect
